Earlier results in the PKSmart pharmacokinetics tables (Seal et al. 2025).

Experiment: Lombardo et al. 2013, J Clin Pharmacol 53:178, doi 10.1177/0091270012440282
Settings: rat

SMILES: CC(C)N1CCC(N(C(=O)Cc2ccccc2)c2ccc(Cl)cc2)CC1
- Vd (in vivo, iv): 15.7 L/kg
- clearance (in vivo, iv): 103 mL/min/kg
- fraction unbound (plasma): 0.26
